PubChem BioAssay AID624352 (Sanford-Burnham Center for Chemical Genomics, 2012)
This is a selection; strong and weak results do not stand in their true shares. Calls of active or inactive are those of the source.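 Rule for the calls: active = inhibition of the luminescence signal of 40% or more relative to plate controls, in a single-dose primary screen at 18.75 µM; inactive = the rest.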

test: blockers of HIF-2a driven luciferase – luminescence, 786-0 RCC cells, primary screen (AID 624352); details: 786-0 RCC cells HIF-2a reporter, overnight, at 18.8 µM, stronger effect = higher value

Row | SMILES | inhibition
1 | CC(C)(C)n1nnnc1C(c1ccccc1)N1CCC(n2c(=O)[nH]c3ccccc32)CC1 (centres undefined) | inactive: 10.2%
2 | O=C1CCN(Cc2ccccc2)CC1 | inactive: 2.58%
3 | CCOc1ccc(C)cc1CN(CCCl)CCCl | inactive: -0.734%
4 | CCOC(=O)N1CCC(Nc2cccc(C)c2)CC1 | inactive: 14.3%
5 | COc1cc(C(=O)NCC2(N(C)C)CCCCC2)ccc1OC(F)F | inactive: 16.4%
6 | O=c1[nH]c2ccccc2n1C1CCN(C(c2cccc3ccccc23)c2nnnn2C2CCCC2)CC1 (centres undefined) | inactive: -2.42%
7 | O=c1[nH]c2ccccc2n1C1CCN(C(c2ccccc2)c2nnnn2C2CCCCC2)CC1 (centres undefined) | inactive: 3.99%
8 | Cc1ccc(C(=O)NCC2(N3CCCCC3)CCCCC2)o1 | inactive: 5.83%
9 | Fc1ccccc1NC1CCN(Cc2ccccc2)CC1 | inactive: 15.3%
10 | Cc1ccc(NC2(C#N)CCN(Cc3ccccc3)CC2)cc1 | inactive: 6.99%
11 | COc1cccc(C(c2nnnn2C2CCCCC2)N2CCC(n3c(=O)[nH]c4ccccc43)CC2)c1OC (centres undefined) | inactive: -15.4%
12 | CC(=O)N(c1ccccc1)C1CCNCC1 | inactive: 4.2%
13 | CCC(c1nnnn1C1CCCCC1)N1CCC(n2c(=O)[nH]c3ccccc32)CC1 (centres undefined) | inactive: -1.51%
14 | COc1cc(OC)cc(C(=O)NCC2(N3CCCCC3)CCCCC2)c1 | inactive: 18.8%
15 | O=c1[nH]c2ccccc2n1C1CCN(C(c2ccnc3ccccc23)c2nnnn2C2CCCCC2)CC1 (centres undefined) | inactive: 17.6%
16 | O=C(NCC1(N2CCCCC2)CCCCC1)c1ccco1 | inactive: 5.93%
17 | CN(C)c1ccc(C(=O)NCC2(N3CCCCC3)CCCCC2)cc1 | inactive: 14.4%
18 | Cn1c(=O)[nH]cc(N(CCCl)CCCl)c1=O | inactive: 5.28%
19 | Cc1ccccc1NC1(C#N)CCN(Cc2ccccc2)CC1 | inactive: 1.48%
20 | CCN1CCC(Nc2cccc(F)c2)CC1 | inactive: 12.6%
21 | COc1ccc(C(c2nnnn2C2CCCCC2)N2CCC(n3c(=O)[nH]c4ccccc43)CC2)cc1 (centres undefined) | inactive: -5.17%
22 | CC(C)(C)n1nnnc1C(c1ccnc2ccccc12)N1CCC(n2c(=O)[nH]c3ccccc32)CC1 (centres undefined) | inactive: 26%
23 | CC(C)(C)OC(=O)N1CCC(Nc2ccccc2)CC1 | inactive: 0.308%
24 | O=C(O)C1(Nc2ccccc2)CCN(Cc2ccccc2)CC1 | inactive: 10.7%
25 | NN(c1ccccc1)C1CCN(CCc2ccccc2)CC1 | inactive: 3.68%
26 | O=c1[nH]c2ccccc2n1C1CCN(C(c2cc3ccccc3o2)c2nnnn2C2CCCC2)CC1 (centres undefined) | inactive: -106%
27 | CCCOc1ccc(C(=O)NCC2(N(C)C)CCCCC2)cc1 | inactive: 15.1%

Row | SMILES | inhibition
28 | CCOc1ncccc1C(=O)NCC1(N2CCOCC2)CCCCC1 | inactive: 21.5%
29 | CN1CCC(Nc2ccc(F)c(Cl)c2)CC1 | inactive: 11.3%
30 | CN1CCC(Nc2ccc(Cl)cc2)CC1 | inactive: 3.5%
31 | COc1cc(OC)cc(C(=O)NCC2(N3CCOCC3)CCCCC2)c1 | inactive: 16.1%
32 | COc1cccc(C(c2nnnn2C2CCCC2)N2CCC(n3c(=O)[nH]c4ccccc43)CC2)c1OC (centres undefined) | inactive: 2.85%
33 | COc1cccc(C(=O)N(c2cc(C)cc(C)c2)C2CCN(C(=O)OC(C)(C)C)CC2)c1 | inactive: 18.6%
34 | CCC(CO)(C(=O)OC1CN2CCC1CC2)c1ccccc1 (centres undefined) | inactive: 19%
35 | O=c1[nH]c2ccccc2n1C1CCN(C(c2cccs2)c2nnnn2C2CCCCC2)CC1 (centres undefined) | inactive: -2.69%
36 | COc1ccc(C(=O)NCC2(N3CCOCC3)CCCCC2)cc1OC | inactive: 12.7%
37 | O=c1[nH]c2ccccc2n1C1CCN(C(c2ccnc3ccccc23)c2nnnn2C2CCCC2)CC1 (centres undefined) | inactive: 26.9%
38 | CCCCn1nnnc1C(c1ccccc1)N1CCC(n2c(=O)[nH]c3ccccc32)CC1 (centres undefined) | inactive: 6.84%
39 | COc1cc(C(=O)NCC2(N3CCOCC3)CCCCC2)cc(OC)c1C | inactive: 15.4%
40 | O=C(NCC1(N2CCOCC2)CCCCC1)c1cc(Br)ccc1Cl | inactive: 3.27%
41 | O=C(OC1CN2CCC1CC2)C1c2ccccc2C=Cc2ccccc21 (centres undefined) | inactive: -5.5%
42 | O=c1[nH]c2ccccc2n1C1CCN(C(c2cccs2)c2nnnn2C2CCCC2)CC1 (centres undefined) | inactive: 8.25%
43 | CCCCn1nnnc1C(c1cccc(OC)c1OC)N1CCC(n2c(=O)[nH]c3ccccc32)CC1 (centres undefined) | inactive: 8.7%
44 | CCOC(=O)N1CCC(Nc2ccc(C)cc2)CC1 | inactive: -2.69%
45 | COc1cccc(C(c2nnnn2C(C)(C)C)N2CCC(n3c(=O)[nH]c4ccccc43)CC2)c1OC (centres undefined) | inactive: 16.7%
46 | N/C(=N\O)c1c(N)no[n+]1[O-] | inactive: 17.9%
47 | N#Cc1ccc(C(=O)NCC2(N3CCCCC3)CCCCC2)cc1 | inactive: 4.88%
48 | CC(C)(C)OC(=O)N1CCC(N(C(=O)c2ccccc2)c2ccc(Cl)cc2)CC1 | inactive: 14.3%
49 | CC(C)(C)n1nnnc1C(c1cccc2ccccc12)N1CCC(n2c(=O)[nH]c3ccccc32)CC1 (centres undefined) | inactive: -8.57%
50 | CN(C)C1(CNC(=O)c2cccc(C#N)c2)CCCCC1 | inactive: 19%
51 | c1ccc(CN2CCC(Nc3ccccc3)CC2)cc1 | inactive: 13.4%
52 | Cc1cc(N(CCCl)CCCl)ccc1C=O | inactive: 6.48%
53 | O=c1[nH]c2ccccc2n1C1CCN(C(c2ccccc2)c2nnnn2C2CCCC2)CC1 (centres undefined) | inactive: 16%
54 | CCCN1CCC(Nc2cc(OC)cc(OC)c2)CC1 | inactive: 15.9%
